Key:
[1] = molecular target: human cytosolic Serine Hydroxymethyl transferase 1 (SHMT1) (Homo sapiens (Human), UniProt P34896); assay: SHMT1 activity inhibition assay (serine production from glycine and CH2-THF, mass spectroscopy); conditions: read-out: SHMT1 IC50; 60 minutes at room temperature
Description: Full length human cytosolic Serine Hydroxymethyl transferase 1 (SHMT1, residues 1-483 in Uniport ID P34896) was expressed as an N-terminal His6 tagged protein and purified in E. coli using nickel capture followed by size-exclusion chromatography. Human mitochondrial SHMT2 (residues 30-504 in Uniprot ID P34897) with mitochondrial leader sequence deleted was expressed as an N-terminal His6 tagged protein and purified in E. coli using nickel capture followed by size-exclusion chromatography.
Serine hydroxymethyltransferases catalyze the reversible hydroxymethylation of glycine to serine, with methylene tetrahydrofolate (CH2-THF) providing the additional carbon. SHMT1 and SHMT2 activity was determined by measuring serine production from glycine and CH2-THF using mass spectroscopy. Briefly, 15 ul of 0.5 mM glycine and 0.2 mM CH2-THF in 20 mM TEA, pH8.0, 0.2 mM NADPH were added to 384 well plate containing 0, 0.05 mM, 0.005 mM or 0.0005 mM of inhibitor. 15 ul of SHMT1 or 2 were added to initiate the reaction. The plate was incubated for 60 minutes at room temperature and the reaction was quenched by the addition of 30 ul of 10% trichloroacetic acid. Serine produced was analyzed using Rapidfire 360 and API4000^+ in the positive ion mode.

The chains behind the UniProt entries cited, without tags or fusion partners. Residues count along the entry.
UniProt P34896, whole entry: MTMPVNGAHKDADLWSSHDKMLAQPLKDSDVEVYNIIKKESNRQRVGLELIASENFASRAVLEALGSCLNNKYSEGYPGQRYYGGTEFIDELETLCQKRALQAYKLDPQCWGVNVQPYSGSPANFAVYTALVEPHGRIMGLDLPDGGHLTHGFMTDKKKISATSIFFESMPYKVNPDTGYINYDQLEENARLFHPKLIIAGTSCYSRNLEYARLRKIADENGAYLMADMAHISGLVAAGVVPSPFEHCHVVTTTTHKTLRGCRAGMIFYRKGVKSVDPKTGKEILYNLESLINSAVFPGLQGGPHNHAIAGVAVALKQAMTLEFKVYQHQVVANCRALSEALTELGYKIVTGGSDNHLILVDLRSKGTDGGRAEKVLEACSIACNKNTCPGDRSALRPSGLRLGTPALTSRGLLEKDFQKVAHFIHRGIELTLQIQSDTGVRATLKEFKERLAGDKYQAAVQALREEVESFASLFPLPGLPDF
UniProt P34897, 30-504 limits assumed: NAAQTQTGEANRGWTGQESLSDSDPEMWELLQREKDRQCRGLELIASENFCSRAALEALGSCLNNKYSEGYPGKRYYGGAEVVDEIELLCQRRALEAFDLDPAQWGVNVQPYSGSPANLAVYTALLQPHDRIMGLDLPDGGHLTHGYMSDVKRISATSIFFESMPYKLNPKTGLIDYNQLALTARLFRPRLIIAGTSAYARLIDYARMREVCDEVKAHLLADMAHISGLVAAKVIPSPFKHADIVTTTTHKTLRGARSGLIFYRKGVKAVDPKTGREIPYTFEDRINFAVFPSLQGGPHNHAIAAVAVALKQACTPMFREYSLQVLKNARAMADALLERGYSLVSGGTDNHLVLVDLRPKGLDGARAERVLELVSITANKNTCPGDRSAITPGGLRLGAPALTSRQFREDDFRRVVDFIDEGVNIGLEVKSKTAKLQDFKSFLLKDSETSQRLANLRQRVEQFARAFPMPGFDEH

[2] = molecular target: Human mitochondrial SHMT2 (Homo sapiens (Human), UniProt P34897); assay: SHMT2 activity inhibition assay (serine production from glycine and CH2-THF, mass spectroscopy); conditions: read-out: SHMT2 IC50; 60 minutes at room temperature

SMILES: C[C@H](NC(=O)Cc1csc(-c2ccc(OC(F)(F)F)cc2)n1)C(=O)O
- IC50 [1]: 100 to 500 µM
- IC50 [2]: 10 to 100 µM

— US11091451B2, “SHMT inhibitors and uses thereof” (Raze Therapeutics, Inc., priority 2016, dated 2021)
